Tests used:
MKN45 = assay: Growth inhibition of gastric cancer cells MKN45 (CCK-8); settings: read-out: IC50-MKN45, half inhibitory concentration, 72 hours
Description: (§1) Inoculate gastric cancer cells (SNU5 or MKN45) into a 96 well plate at a concentration of […], with 100 μl added to each well. Incubate for 30 minutes. Observe the cell status under a microscope. Prepare compounds, weigh a certain amount of the series compounds or reference drug cabozantinib of this patent, first prepare a high concentration mother liquor with pure DMSO, and use gradient dilution method to prepare a concentration of 200 μM, 60 μM, 20 μM, 6 μM, 2 μM, 600 nM, 200 nM, 0 nM drug solution, shake to make it fully mixed. The control group was prepared with cabozantinib using the same solvent and method.
(§2) After preparation, add 1 μl of drug solution to each well of the 96 well plate, and then add 100 μl of culture medium. Repeat each dose three times. Gently shake to allow the cells and medication to come into full contact and incubate in the incubator for 72 hours. 72 hours later, remove and color with CCK-8 reagent kit. Add 20 μl of CCK-8 reagent to each well, gently shake well, and incubate in the incubator for 1 hour. After 1 hour, remove and measure the absorbance of each well using an enzyme-linked immunosorbent assay (ELISA) reader at a wavelength of 450 nm.
(§3) According to the formula: Cell growth inhibition rate=[1−(absorbance of experimental group absorbance of culture medium control group)/(absorbance of blank control group−absorbance of culture medium control group)]×100%. It can be concluded that the compound has the ability to inhibit the growth of gastric cancer cells at the current dose and time.
(§4) Draw a graph based on the gradient of concentration and use GraphPad Prism 9 software (GraphPad Software, La Jolla, CA) to calculate the maximum inhibitory concentration (IC50) at 50%.
(§5) Referring to steps 1 and 2 of this embodiment, the inhibitory effect of the compound of the present invention on the growth of cancer cells and the degradation effect of target proteins were measured, and the following results were obtained (see Table 2 below).
(§6) The growth inhibitory effects of the compound of the present invention on tumor cell lines MKN45 and SNU5 were measured. The activity is expressed as half inhibitory concentration (C50). The results are shown in Table 2 below; When the half inhibitory concentration is less than or equal to 100 nM, the compound activity is labeled as “++++”; When the half inhibitory concentration is greater than 100 nM and less than 500 nM, the compound activity is labeled as […] and less than 1000 nM, the compound activity is labeled as “++”; When the half inhibitory concentration is greater than 1000 nM and less than 3000 nM, the compound activity is marked as “+”; When the half inhibitory concentration is greater than 3000 nM, the compound activity is marked as […]

The chains behind the UniProt entries cited, without tags or fusion partners. Residues count along the entry.
UniProt Q08345, 19-913 limits assumed: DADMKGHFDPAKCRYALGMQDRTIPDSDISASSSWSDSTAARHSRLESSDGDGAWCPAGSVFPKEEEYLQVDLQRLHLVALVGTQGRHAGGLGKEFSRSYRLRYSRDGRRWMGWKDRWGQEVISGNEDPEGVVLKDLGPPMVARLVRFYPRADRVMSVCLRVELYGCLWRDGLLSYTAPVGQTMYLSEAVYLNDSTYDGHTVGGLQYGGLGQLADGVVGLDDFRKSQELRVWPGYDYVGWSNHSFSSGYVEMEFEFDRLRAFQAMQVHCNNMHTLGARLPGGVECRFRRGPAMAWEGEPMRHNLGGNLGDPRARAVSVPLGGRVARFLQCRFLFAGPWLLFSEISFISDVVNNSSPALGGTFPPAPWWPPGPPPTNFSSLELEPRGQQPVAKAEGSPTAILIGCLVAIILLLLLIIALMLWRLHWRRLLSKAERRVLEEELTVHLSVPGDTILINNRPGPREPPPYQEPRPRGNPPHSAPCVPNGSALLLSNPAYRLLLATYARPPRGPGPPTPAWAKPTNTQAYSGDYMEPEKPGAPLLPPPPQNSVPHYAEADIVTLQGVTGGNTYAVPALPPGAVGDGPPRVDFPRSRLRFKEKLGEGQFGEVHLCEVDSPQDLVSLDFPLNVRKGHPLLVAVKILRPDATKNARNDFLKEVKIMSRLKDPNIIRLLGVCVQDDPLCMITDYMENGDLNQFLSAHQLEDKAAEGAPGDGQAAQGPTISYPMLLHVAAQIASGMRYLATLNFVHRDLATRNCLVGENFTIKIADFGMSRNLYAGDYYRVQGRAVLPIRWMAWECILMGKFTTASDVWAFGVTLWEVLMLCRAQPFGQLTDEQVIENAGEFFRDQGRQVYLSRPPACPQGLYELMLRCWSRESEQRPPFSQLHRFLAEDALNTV

SNU5 = assay: Growth inhibition of gastric cancer cells SNU5 (CCK-8); settings: read-out: IC50-SNU5, half inhibitory concentration, 72 hours
Description: as §1, §2, §3, §4, §5, §6

DDR1 = DDR1 (Homo sapiens, UniProt Q08345); assay: Degradation of DDR1 in tumor cell MKN45 (Western blot); settings: maximum degradation percentage, MKN45 cells, 24 hours

| Compound | IC50 (MKN45) [µM] | IC50 (SNU5) [µM] | Dmax-DDR1 (DDR1) |
| --- | --- | --- | --- |
| COc1cc2c(Oc3ccc(NC(=O)C4(C(=O)Nc5ccc(F)cc5)CC4)cc3)ccnc2cc1N1CCC(N2CCC(C(=O)NCCCC(=O)N[C@H](C(=O)N3C[C@H](O)C[C@H]3C(=O)NCc3ccc(-c4scnc4C)cc3)C(C)(C)C)CC2)CC1 | 1 to 3 | 1 to 3 | ++++ (When the maximum degradation percentage is greater than or equal to 85%) |
| COc1cc2c(Oc3ccc(NC(=O)C4(C(=O)Nc5ccc(F)cc5)CC4)cc3)ccnc2cc1N1CCC(CN2CC3CC(C2)N3CCC(=O)Nc2cc3c(cn2)C(=O)N(C2CCC(=O)NC2=O)C3)CC1 (centres unmarked) | < 0.1 | < 0.1 | ++ (When the maximum degradation percentage is greater than 75% and less than 85%) |
| COc1cc2c(Oc3ccc(NC(=O)C4(C(=O)Nc5ccc(F)cc5)CC4)cc3)ccnc2cc1N1CCC(CN2CCC(OCCC(=O)N[C@H](C(=O)N3C[C@H](O)C[C@H]3C(=O)NCc3ccc(-c4scnc4C)cc3)C(C)(C)C)CC2)CC1 | 0.1 to 0.5 | 0.1 to 0.5 | – |
| COc1cc2c(Oc3ccc(NC(=O)C4(C(=O)Nc5ccc(F)cc5)CC4)cc3)ccnc2cc1N1CCC(CN2CCN(CC(=O)N[C@H](C(=O)N3C[C@H](O)C[C@H]3C(=O)NCc3ccc(-c4scnc4C)cc3)C(C)(C)C)CC2)CC1 | < 0.1 | < 0.1 | ++ (When the maximum degradation percentage is greater than 75% and less than 85%) |
| COc1cc2c(Oc3ccc(NC(=O)C4(C(=O)Nc5ccc(F)cc5)CC4)cc3)ccnc2cc1N1CCC(CN2CC(C(=O)N[C@H](C(=O)N3C[C@H](O)C[C@H]3C(=O)NCc3ccc(-c4scnc4C)cc3)C(C)(C)C)C2)CC1 | 0.1 to 0.5 | 0.1 to 0.5 | ++ (When the maximum degradation percentage is greater than 75% and less than 85%) |

Now from value to molecule, other results behind:

| IC50 (MKN45) [µM] | IC50 (SNU5) [µM] | Compound | Dmax-DDR1 (DDR1) |
| --- | --- | --- | --- |
| < 0.1 | < 0.1 | O=C1CCC(N2Cc3cc(/C=C\CCN4CC5CC(C4)N5CC4CCN(c5cc6nccc(Oc7ccc(NC(=O)C8(C(=O)Nc9ccc(F)cc9)CC8)cc7)c6cc5F)CC4)ncc3C2=O)C(=O)N1 (centres unmarked) | ++ (When the maximum degradation percentage is greater than 75% and less than 85%) |
| < 0.1 | 0.1 to 0.5 | COc1cc2c(Oc3ccc(NC(=O)C4(C(=O)Nc5ccc(F)cc5)CC4)cc3)ccnc2cc1CNC(=O)C1CCN(CC2CCN(c3ccc4c(c3)C(=O)N(C3CCC(=O)NC3=O)C4=O)CC2)CC1 (centres unmarked) | – |
| < 0.1 | < 0.1 | O=C1CCC(N2Cc3cc(NC(=O)CCN4C[C@@H]5C[C@H]4CN5CC4CCN(c5cc6nccc(Oc7ccc(NC(=O)C8(C(=O)Nc9ccc(F)cc9)CC8)cc7)c6cc5F)CC4)ncc3C2=O)C(=O)N1 (some centres unmarked) | ++ (When the maximum degradation percentage is greater than 75% and less than 85%) |
| < 0.1 | < 0.1 | COc1cc2c(Oc3ccc(NC(=O)C4(C(=O)Nc5ccc(F)cc5)CC4)cc3)ccnc2cc1N1CCC(CN2CCN(CCNc3cccc4c3CN(C3CCC(=O)NC3=O)C4=O)CC2)CC1 (centres unmarked) | – |
| < 0.1 | < 0.1 | O=C1CCC(N2Cc3cc(/C=C/CCN4CC5CC(C4)N5CC4CCN(c5cc6nccc(Oc7ccc(NC(=O)C8(C(=O)Nc9ccc(F)cc9)CC8)cc7)c6cc5F)CC4)ncc3C2=O)C(=O)N1 (centres unmarked) | – |
